Measurements: EPA's ToxRefDB 2

Tests used:
rabbit [1] = conditions: Prenatal developmental toxicity study, Oral, Gavage/Intubation, dose end: 13 day, group: maternal
rat [2] = conditions: Prenatal developmental toxicity study; Oral; Gavage/Intubation; dose end: 1 generation; group: maternal; reproductive / reproductive performance / precoital interval / precoital interval + systemic / in life observation / body weight / body …
rat [3] = conditions: Prenatal developmental toxicity study, Oral, Gavage/Intubation, dose end: 12 day
rat [4] = conditions: Prenatal developmental toxicity study, Oral, Gavage/Intubation, dose end: 12 day; remark: listed apart in the source
rabbit [5] = conditions: Prenatal developmental toxicity study, new zealand white, Oral, Gavage/Intubation, dose end: 13 day
rat [6] = conditions: Prenatal developmental toxicity study, sprague dawley, Oral, Gavage/Intubation, dose end: 12 day
rabbit [7] = conditions: Prenatal developmental toxicity study, Oral, Gavage/Intubation, dose end: 15 day
rat [8] = conditions: Prenatal developmental toxicity study; Oral; Gavage/Intubation; dose end: 1 generation; group: maternal; reproductive / reproductive performance / estrous cycle / corpora lutea + reproductive / reproductive performance / fertility / fertility + …
rat [9] = conditions: Sub-acute repeat dose toxicity; sprague dawley; Oral; Gavage/Intubation; dose end: 36 day; group: systemic; systemic / in life observation / clinical signs / hyperactivity
rat [10] = conditions: Prenatal developmental toxicity study, sprague dawley, Oral, Gavage/Intubation, dose end: 21 PND
rat [11] = conditions: Prenatal developmental toxicity study, Injection, Intravenous, dose end: 12 day
rat [12] = conditions: Prenatal developmental toxicity study, Injection, Intravenous, dose end: 12 day; remark: listed apart in the source
rabbit [13] = conditions: Sub-acute repeat dose toxicity; Injection; Intravenous; dose end: 5 day; group: systemic; systemic / in life observation / clinical signs / altered breathing rate + systemic / in life observation / clinical signs / labored …
rabbit [14] = conditions: Prenatal developmental toxicity study, Injection, Intravenous, dose end: 13 day
rat [15] = conditions: Prenatal developmental toxicity study, long evans, Oral, Gavage/Intubation, dose end: 3 PND, group: developmental
[16] = systemic / in life observation / body weight / body weight gain + systemic / in life observation / food consumption / food consumption + …
[17] = group: developmental, developmental / developmental malformation / trunk / anal atresia + systemic / in life observation / body weight / fetal weight
[18] = group: maternal, systemic / in life observation / body weight / body weight + systemic / in life observation / body weight / body weight gain + systemic / in…
[19] = group: developmental, developmental / developmental malformation / trunk / umbilical hernia + systemic / in life observation / body weight / fetal weight
[20] = group: maternal, systemic / clinical chemistry / cholesterol / cholesterol + systemic / pathology microscopic / blood / poikilocytosis
[21] = group: maternal, systemic / clinical chemistry / cholesterol / cholesterol + systemic / pathology microscopic / blood / poikilocytosis + reproductive / …
[22] = group: developmental, systemic / in life observation / body weight / fetal weight
[23] = group: maternal, reproductive / reproductive performance / aborted / aborted + systemic / in life observation / body weight / body weight gain + systemic / …
[24] = group: maternal, systemic / in life observation / body weight / body weight gain + systemic / in life observation / food consumption / food consumption
[25] = group: developmental, developmental / developmental malformation / trunk / omphalocele + systemic / in life observation / body weight / fetal weight
[26] = group: maternal, reproductive / offspring survival early / litter size / litter size + reproductive / reproductive performance / aborted / aborted + …
[27] = group: developmental, developmental / developmental landmark / vaginal opening / vaginal opening + systemic / in life observation / body weight / offspring (pup) …
[28] = group: maternal, systemic / in life observation / clinical signs / motor activity
[29] = group: maternal, systemic / in life observation / clinical signs / motor activity + systemic / in life observation / body weight / body weight
[30] = group: developmental, developmental / developmental malformation / bone / [other] + developmental / developmental malformation / bone / incomplete ossification + …
[31] = group: maternal, systemic / in life observation / food consumption / food consumption + systemic / pathology gross / skin / mass + systemic / pathology gross…
[32] = group: maternal, systemic / in life observation / mortality / mortality
[33] = group: maternal, systemic / in life observation / mortality / mortality + systemic / in life observation / body weight / body weight + systemic / in life …
[34] = group: maternal, systemic / in life observation / mortality / mortality + reproductive / reproductive performance / aborted / aborted + systemic / in life …
[35] = developmental / developmental landmark / anogenital distance (agd) / anogenital distance (agd)
[36] = developmental / developmental malformation / penis / hypospadias + developmental / developmental landmark / anogenital distance (agd) / …

`Cc1cc2c3c(c1)C(c1ccccc1)=N[C@@H](NC(=O)c1ccncc1)C(=O)N3CC2` [CI-1018] was tested, and the NEL (rabbit [1]; systemic / in life observation / body weight / body weight gain + systemic / in life observation / food consumption / food consumption) was < 50 mg/kg/day, the LOAEL (rabbit [1]; [16]) was > 1000 mg/kg/day and the NOAEL (rabbit [1]; [16]) was ≥ 1000 mg/kg/day. For the same molecule, the LEL (rat [2]) was 300 mg/kg/day, the LOAEL (rat [2]) was > 500 mg/kg/day and the NEL (rat [2]) was 100 mg/kg/day. For the same molecule, the NOAEL (rat [2]) was ≥ 500 mg/kg/day, the LEL (rat [3]; [17]) was 500 mg/kg/day and the LOAEL (rat [3]; [17]) was > 750 mg/kg/day. The NOAEL (rat [3]; [17]) was ≥ 750 mg/kg/day, the LOAEL (rat [3]; [18]) was > 750 mg/kg/day and the NEL (rat [3]; [18]) was 100 mg/kg/day. The NOAEL (rat [3]; [18]) was ≥ 750 mg/kg/day and the LEL (rat [3]; group: maternal, systemic / in life observation / body weight / body weight gain + systemic / in life observation / clinical signs / abnormal feces + …) was 300 mg/kg/day.

`CC(=O)NCCN1CCc2cc(NC(=O)c3ccccc3-c3ccc(C(F)(F)F)cc3)ccc2C1` was tested, and the LEL (rat [4]; [19]) was 2 mg/kg/day, the NEL (rat [4]; [19]) was < 2 mg/kg/day and the LEL (rat [4]; [20]) was 2 mg/kg/day. The NEL (rat [4]; [20]) was < 2 mg/kg/day, the LOAEL (rat [4]; [21]) was > 50 mg/kg/day and the NOAEL (rat [4]; [21]) was ≥ 50 mg/kg/day. The LEL (rabbit [5]; [22]) was 2 mg/kg/day, the LOAEL (rabbit [5]; [22]) was > 100 mg/kg/day and the NEL (rabbit [5]; [22]) was < 2 mg/kg/day. The NOAEL (rabbit [5]; [22]) was ≥ 100 mg/kg/day, the LOAEL (rabbit [5]; [23]) was > 100 mg/kg/day and the NOAEL (rabbit [5]; [23]) was ≥ 100 mg/kg/day. For the same molecule, the LEL (rabbit [5]; [24]) was 2 mg/kg/day and the NEL (rabbit [5]; [24]) was < 2 mg/kg/day.

For `CS(=O)(=O)O.Cc1nccn1-c1ccc(Sc2cccc(C3(C(N)=O)CCOCC3)c2)cc1`, the LEL (rat [6]; [22]) was 75 mg/kg/day, the LOAEL (rat [6]; [22]) was > 75 mg/kg/day and the NOAEL (rat [6]; [22]) was ≥ 75 mg/kg/day. For the same molecule, the LOAEL (rat [6]; [18]) was > 75 mg/kg/day, the NOAEL (rat [6]; [18]) was ≥ 75 mg/kg/day and the LEL (rat [6]; [24]) was 10 mg/kg/day. The NEL (rat [6]; [24]) was < 10 mg/kg/day.

In the case of `CC(C)(C)c1cc(/C=C2\SC(N)=NC2=O)cc(C(C)(C)C)c1O.CS(=O)(=O)O` [Darbufelone mesylate], the LOAEL (rabbit [7]; [25]) is reported as > 100 mg/kg/day, the NOAEL (rabbit [7]; [25]) is reported as ≥ 100 mg/kg/day and the LOAEL (rabbit [7]; [26]) is reported as > 100 mg/kg/day. For the same molecule, the NOAEL (rabbit [7]; [26]) was ≥ 100 mg/kg/day, the LOAEL (rat [8]) was > 50 mg/kg/day and the NOAEL (rat [8]) was ≥ 50 mg/kg/day.

For `COCCOC[C@H](CC1(C(=O)NC2CCC(C(=O)O)CC2)CCCC1)C(=O)Oc1ccc2c(c1)CCC2` (some centres not stated) [Candoxatril], the LEL (rat [9]) was 120 mg/kg/day, the LEL (rat [10]; [27]) was 1200 mg/kg/day and the LOAEL (rat [10]; [27]) was > 1200 mg/kg/day. For the same molecule, the NEL (rat [10]; [27]) was 400 mg/kg/day, the NOAEL (rat [10]; [27]) was ≥ 1200 mg/kg/day and the LEL (rat [10]; [28]) was 120 mg/kg/day. For the same molecule, the NEL (rat [10]; [28]) was < 120 mg/kg/day, the LOAEL (rat [10]; [29]) was > 1200 mg/kg/day and the NOAEL (rat [10]; [29]) was ≥ 1200 mg/kg/day.

`NC(N)=NC(=O)c1cnn(-c2cccc3ncccc23)c1C1CC1` [Zoniporide] was tested, and the LEL (rat [11]; [30]) was 200 mg/kg/day, the LOAEL (rat [11]; [30]) was > 200 mg/kg/day and the NOAEL (rat [11]; [30]) was ≥ 200 mg/kg/day. The LEL (rat [11]; [31]) was 15 mg/kg/day, the LOAEL (rat [11]; [31]) was > 200 mg/kg/day and the NEL (rat [11]; [31]) was < 15 mg/kg/day. The NOAEL (rat [11]; [31]) was ≥ 200 mg/kg/day, the LEL (rat [12]; [22]) was 250 mg/kg/day and the LOAEL (rat [12]; [22]) was > 250 mg/kg/day. The NOAEL (rat [12]; [22]) was ≥ 250 mg/kg/day, the LEL (rat [12]; [32]) was 15 mg/kg/day and the NEL (rat [12]; [32]) was < 15 mg/kg/day. The LOAEL (rat [12]; [33]) was > 250 mg/kg/day, the NOAEL (rat [12]; [33]) was ≥ 250 mg/kg/day and the LEL (rabbit [13]) was 250 mg/kg/day. For the same molecule, the LEL (rabbit [14]; [22]) was 150 mg/kg/day, the LOAEL (rabbit [14]; [22]) was > 150 mg/kg/day and the NEL (rabbit [14]; [22]) was 50 mg/kg/day. For the same molecule, the NOAEL (rabbit [14]; [22]) was ≥ 150 mg/kg/day, the LEL (rabbit [14]; [32]) was 15 mg/kg/day and the NEL (rabbit [14]; [32]) was < 15 mg/kg/day. For the same molecule, the LOAEL (rabbit [14]; [34]) was > 150 mg/kg/day and the NOAEL (rabbit [14]; [34]) was ≥ 150 mg/kg/day.

With `CC12CC1(C)C(=O)N(c1cc(Cl)cc(Cl)c1)C2=O` (configuration not stated) [Procymidone] the LEL (rat [15]; [35]) was 25 mg/kg/day, the NEL (rat [15]; [35]) was < 25 mg/kg/day and the LOAEL (rat [15]; [36]) was > 200 mg/kg/day. The NOAEL (rat [15]; [36]) was ≥ 200 mg/kg/day.
